In PubChem BioAssay AID1471 (National Center for Advancing Translational Sciences (NCATS), 2008):
The entries are a selection whose mix differs from that of the whole data set. Active and inactive are the calls of the source. The call rests on the fitted dose curve; in most records, active means well fitted activation curve with a large enough effect; inconclusive means small, poorly fitted or top-dose-only effect; inactive means no such curve, though single readings can be large or run the other way.

Assay: qHTS Multiplex Assay to Identify Dual Action Probes in a Cell Model of Huntington: Cytoprotection (ATP);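 further: toxic huntingtin expression switched on by the ecdysone agonist tebufenozide; % of control where 0% means no effect; nearly all actives have a fitted effect of over 45% in size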
Settings: PC12 HTT-Q103 induced, ATP luminescence, 40 h; at 56.4 µM (top of the series) unless noted
Source text: NIH Chemical Genomics Center [NCGC]
NIH Molecular Libraries Probe Production centers Network [MLPCN]
Assay Submitter (PI): Wei Zheng
Huntington's disease is a neurodegenerative disorder caused by a trinucleotide repeat expansion in Exon 1 of the Huntingtin gene. The CAG trinucleotide encodes glutamine and polyglutamine expansions cause cell death in selective areas of the brain. Huntington polyglutamine repeats have the tendency to form aggregates which are observable in later stages of the disease. The exact nature of the aggregates, whether toxic, protective, or insignificant, is unclear.
A stable PC12 cell line containing a gene fusion of Exon 1 of the Huntingtin gene linked to GFP under the control of the inducible ecdysone promoter were used as the cell-based model of Huntington Disease for high throughput screening. Exon 1 of the Huntingtin gene contained an expansion of 103 polyglutamines (Q103) which, when expressed, caused cell death and distinct, bright GFP aggregates. The amount of cell death and the size and intensity of GFP aggregates increased over time and induction level. The cell death were quantified with a measurement of ATP content in the cells. A maximal 40-50% of cell death was observed when the Huntington gene was induced in this cell line.
We optimized this assay in a homogeneous 1536 well format. A quantitative high throughput screen (qHTS) was conducted on the PC12 cells which were induced to express the toxic fusion construct. Small molecules which prevented cell death were identified by using a luminescent ATP quantification method (Perkin Elmer's ATPlite).
PC12 cells stably containing a construct with an ecdysone inducible promoter expressing GFP fused to the exon 1 of HTTQ103 (Huntington protein which containing a 103 ployglutamine expansion) were used.
NCGC Assay Protocol Summary:
Sequence, Parameter, Description
1, Reagent, 5 uL 1500 cells/well 1536 TC treated White clear bottom plate
2, Compound, 23 nL Tebufenozide inducer (100 nM final) to all columns
3, Compound, 23 nL 40 uM to 0.5 nM Libraries
5, Reagent, 5 ul ATPLite cell death assay reagent
6, Detector, 4 sec integration with a Viewlux Luminescent
Media consisted of phenol red free DMEM + 5% equine serum (Hyclone # SH30072.03 ), 5% supplemented Bovine Calf Serum (Hyclone # SH30074.03 ), 1x pen/strep, no G418
Control columns: 1 = DMSO, 2= 2 uM teb dilns (1:1), 4 = 100 nM Teb inducer. Sample columns received 100 nM Teb.

Compound	cytoprotection (ATP increase)
CP(=O)(Nc1ccccc1F)Oc1ccccc1 (stereo not drawn)	inactive: -11.7%
CC(C)c1ccc(OP(C)(=O)Nc2ccc(SC(F)(F)F)cc2)cc1 (stereo not drawn)	inactive: 1.05% [at 10 µM]
O=C(OCCN1CCN(CCOCc2ccccc2)CC1)C(O)(c1ccccc1)c1ccccc1	inactive: 13.3% [at 10 µM]
Cc1cccc([N+](=O)[O-])c1[N+](=O)[O-]	inactive: 0.228%
CCC(C)(OO)OOC(C)(CC)OO (stereo not drawn)	inactive: -5.5%
COc1ccc(OP(C)(=O)Nc2ccc(SC(F)(F)F)cc2)cc1 (stereo not drawn)	inactive: -40%
CCN(CC)CCCOC(=O)C(O)(c1ccccc1)C1CCCCC1 (stereo not drawn)	inactive: 3.16% [at 1.9 µM]
CP(=O)(Nc1ccccc1)Oc1ccc(F)cc1 (stereo not drawn)	inactive: 14.1%
CCCCCOc1ccc(NP(C)(=O)Oc2ccc(Cl)cc2Cl)cc1 (stereo not drawn)	inactive: 16.6% [at 10 µM]
COc1ccc(OP(C)(=O)Nc2cccc(Br)c2)cc1 (stereo not drawn)	inactive: 16.8%
CN(C)CCOC(=O)C(O)(c1ccccc1)C1CCCCC1 (stereo not drawn)	inactive: 11.9% [at 10 µM]
COc1ccc(NP(C)(=O)Oc2ccccc2OC)cc1 (stereo not drawn)	inactive: -26.5%
O=[N+]([O-])c1ccc(OP2(=O)COCCO2)cc1 (stereo not drawn)	inactive: 12.8% [at 10 µM]
Cc1cc(-c2cccc3ccccc23)c(C)cn1.O=[N+]([O-])c1cc([N+](=O)[O-])c(O)c([N+](=O)[O-])c1	inactive: 26.9% [at 10 µM]
Cc1ccc([N+](=O)[O-])c([N+](=O)[O-])c1	inactive: -15%
Cc1c([N+](=O)[O-])cccc1[N+](=O)[O-]	inactive: 0.6%
CP(=O)(Nc1ccc(SC(F)(F)F)cc1)Oc1ccc(F)cc1 (stereo not drawn)	inactive: 0.574% [at 10 µM]
CCOP(C)(=S)SCC(=O)NC(C)(CC)C(=O)O (stereo not drawn)	inactive: -29.5% [at 0.074 µM]
CCOP(=O)(CC)OCC	inactive: -31.7%
CP(=O)(Nc1ccc2c(c1)OCCO2)Oc1ccccc1 (stereo not drawn)	inactive: -2.29%

Compound	cytoprotection (ATP increase)
[NH4+].[O-][Cl+3]([O-])([O-])[O-]	inactive: -15.4%
Cc1ccccc1NP(C)(=O)Nc1ccccc1C	inactive: 4.57% [at 0.074 µM]
NNC(NN)NN.n1nc(-c2nn[nH]n2)n[nH]1	inactive: -9.12% [at 10 µM]
CCN(CC)CC(O)COC(=O)C(O)(c1ccccc1)C1CCCCC1 (stereo not drawn)	inactive: -5.54%
OCCSCCO	inactive: -4%
O=C(OCCCN1CCCC1)C(O)(c1ccccc1)C1CCCCC1 (stereo not drawn)	inactive: -98.7% [at 10 µM]
COc1ccccc1OP(C)(=O)Nc1c(C)n(C)n(-c2ccccc2)c1=O (stereo not drawn)	inactive: 1.45%
CCc1ccc(OP(C)(=O)Nc2cccnc2)cc1 (stereo not drawn)	inactive: -21.3%
CP(=O)(Oc1ccccc1)N1CCOC1=O (stereo not drawn)	inactive: 4%
CC(C)(C)c1ccc(OP(C)(=O)O)cc1	inactive: -16.6%
COc1ccccc1OP(C)(=O)Nc1ccccc1Br (stereo not drawn)	inactive: -20.1%
CP(=O)(Nc1ccc(Cl)cc1)Oc1ccc(F)cc1 (stereo not drawn)	inactive: 12.1%
CN(C)C(=O)c1c([N+](=O)[O-])cc([N+](=O)[O-])cc1[N+](=O)[O-]	inactive: -176%
CCOC(=O)c1ccc(NP(C)(=O)Oc2ccc(Cl)cc2)cc1 (stereo not drawn)	inactive: -12.1% [at 10 µM]
CP(=O)(OC12CC3CC(CC(C3)C1)C2)OC12CC3CC(CC(C3)C1)C2	inactive: -6.52%
CC(C)OP(=O)(F)OC(C)C	inactive: 25.3%
C/C1=C2N=C(/C=C3N=C(/C(C)=C4\[N-][C@@](C)([C@H]5N=C1[C@@](C)(CCC(=O)NC[C@H](C)OP(=O)([O-])O[C@@H]1[C@H](O)[C@H](n6cnc7cc(C)c(C)cc76)O[C@@H]1CO)[C@@H]5CC(N)=O)[C@](C)(CC(N)=O)[C@H]4CCC(N)=O)[C@@](C)(CC(N)=O)[C@@H]\3CCC(N)=O)C(C)(C)[C@@H]/2CCC(N)=O.[C-]#N.[Co+3]	inactive: -38.9% [at 17.1 µM]
Cc1cc(C)cc(OP(C)(=O)Nc2cccc(C(F)(F)F)c2)c1 (stereo not drawn)	inactive: 12.7% [at 10 µM]
COc1ccccc1OP(C)(=O)Nc1ccc(C)c(C)c1 (stereo not drawn)	inactive: -12.8% [at 10 µM]
COc1ccc(OP(C)(=O)Nc2ccccc2Br)cc1 (stereo not drawn)	inactive: 13.9% [at 10 µM]

Compound	cytoprotection (ATP increase)
Cc1nc2ccc3ccccc3c2o1.O=[N+]([O-])c1cc([N+](=O)[O-])c(O)c([N+](=O)[O-])c1	inactive: -47.5%
CP(=O)(OCCOc1ccccc1)OCCOc1ccccc1	inactive: -27.4%
CP(=O)(Nc1ccc(Cl)cc1Cl)Oc1ccccc1 (stereo not drawn)	inactive: 8.15% [at 10 µM]
COc1ccccc1OP(C)(=O)Nc1ccc(Br)cc1 (stereo not drawn)	inactive: -27.7% [at 10 µM]
COc1ccc(OP(C)(=O)Nc2ccccn2)cc1 (stereo not drawn)	inactive: 23.2%
CN(C)CCOC(=O)C(O)(c1ccccc1)C1CCCC1 (stereo not drawn)	inactive: 12.5%
O=[N+]([O-])c1cc([N+](=O)[O-])c(Nc2ccccn2)c([N+](=O)[O-])c1	inactive: -2.92% [at 10 µM]
Cc1c(NP(C)(=O)Oc2ccc(C(C)C)cc2)c(=O)n(-c2ccccc2)n1C (stereo not drawn)	inactive: 9.17%
COc1ccccc1OP(C)(=O)Nc1ccc(C)cc1C (stereo not drawn)	inactive: -20.5%
CP(=O)(Nc1ccccn1)Oc1ccccc1 (stereo not drawn)	inactive: -2.58%
CCc1ccc(OP(C)(=O)O)cc1	inactive: 5.08%
O=[N+]([O-])[O-].[NH4+]	inactive: -7.53%
O=[N+]([O-])c1ccc2c(c1)C=Nc1ccccc1O2	inactive: -87.8%
Cc1cccc(C)c1OP(C)(N)=O (stereo not drawn)	inactive: 7.16% [at 10 µM]
CC(C)(C)c1ccc(OP(C)(=O)Nc2ccc(SC(F)(F)F)cc2)cc1 (stereo not drawn)	inactive: 14.2% [at 10 µM]
Cc1ccc(NP(C)(=O)Oc2ccccc2)c(C)c1 (stereo not drawn)	inactive: 14.1%
COc1ccccc1OP(C)(=O)Nc1ccc(C)cc1 (stereo not drawn)	inactive: -3.95% [at 10 µM]
Cc1cc(C)cc(OP(C)(N)=O)c1 (stereo not drawn)	inactive: -6.66% [at 10 µM]
